The record followed here is US12539292B2, “BRM targeting compounds and associated methods of use” (Arvinas Operations, Inc., priority 2018, dated 2026).

Chains of the proteins cited; added tags and fusions are not shown.
UniProt P51531, whole entry: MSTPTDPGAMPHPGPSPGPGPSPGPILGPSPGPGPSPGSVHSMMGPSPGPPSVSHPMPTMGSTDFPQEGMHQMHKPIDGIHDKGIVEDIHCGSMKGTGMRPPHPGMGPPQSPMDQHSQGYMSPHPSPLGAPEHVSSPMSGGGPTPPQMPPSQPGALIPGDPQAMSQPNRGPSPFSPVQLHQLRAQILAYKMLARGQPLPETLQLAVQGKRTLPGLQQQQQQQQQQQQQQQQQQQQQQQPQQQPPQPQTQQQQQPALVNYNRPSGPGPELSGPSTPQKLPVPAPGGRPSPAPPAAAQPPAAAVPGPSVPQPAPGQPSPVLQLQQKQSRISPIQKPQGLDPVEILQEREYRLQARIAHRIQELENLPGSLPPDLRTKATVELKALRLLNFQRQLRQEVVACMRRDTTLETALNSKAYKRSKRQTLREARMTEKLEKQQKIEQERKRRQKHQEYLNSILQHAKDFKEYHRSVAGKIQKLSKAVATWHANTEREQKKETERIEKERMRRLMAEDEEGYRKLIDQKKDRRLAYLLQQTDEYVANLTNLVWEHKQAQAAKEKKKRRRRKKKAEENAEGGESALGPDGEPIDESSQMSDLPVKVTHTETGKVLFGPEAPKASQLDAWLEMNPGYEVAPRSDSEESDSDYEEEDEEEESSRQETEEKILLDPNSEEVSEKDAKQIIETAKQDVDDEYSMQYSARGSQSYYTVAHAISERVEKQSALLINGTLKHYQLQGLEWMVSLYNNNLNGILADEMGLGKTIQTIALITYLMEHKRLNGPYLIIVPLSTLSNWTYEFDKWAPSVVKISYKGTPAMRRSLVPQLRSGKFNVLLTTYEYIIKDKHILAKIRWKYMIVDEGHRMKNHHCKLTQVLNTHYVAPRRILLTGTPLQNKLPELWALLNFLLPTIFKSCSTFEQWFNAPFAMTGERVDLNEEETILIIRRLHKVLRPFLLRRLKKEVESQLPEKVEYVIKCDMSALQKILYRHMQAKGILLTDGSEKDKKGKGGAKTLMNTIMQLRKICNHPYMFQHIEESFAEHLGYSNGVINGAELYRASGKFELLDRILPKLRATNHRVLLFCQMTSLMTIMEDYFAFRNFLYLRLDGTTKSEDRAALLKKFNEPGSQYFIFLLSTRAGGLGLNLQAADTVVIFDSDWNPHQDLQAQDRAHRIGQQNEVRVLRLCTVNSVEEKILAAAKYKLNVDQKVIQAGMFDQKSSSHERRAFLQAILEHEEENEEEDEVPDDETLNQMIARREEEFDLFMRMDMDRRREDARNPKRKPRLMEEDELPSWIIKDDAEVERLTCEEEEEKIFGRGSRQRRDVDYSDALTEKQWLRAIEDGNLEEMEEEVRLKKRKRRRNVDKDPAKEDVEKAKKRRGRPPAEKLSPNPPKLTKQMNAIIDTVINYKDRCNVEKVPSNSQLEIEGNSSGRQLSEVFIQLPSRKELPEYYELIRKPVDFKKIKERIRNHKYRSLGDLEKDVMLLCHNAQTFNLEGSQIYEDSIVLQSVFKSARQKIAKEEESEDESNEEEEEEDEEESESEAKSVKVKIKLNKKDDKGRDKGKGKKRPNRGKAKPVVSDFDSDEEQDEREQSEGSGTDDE

The target in this assay is T1, BRM (Homo sapiens, UniProt P51531).
T1 construct: In-Cell Western Screen of BRM Degradation in SW1573 Cells; endogenous in cells; host or cells: SW1573
Put plainly: In-cell Western screen of BRM degradation in SW1573 cells (Dmax and DC50). In kind it is cell-based. Here is the method:
In-Cell Western Screen of BRM Degradation in SW1573 Cells
To assess BRM degradation (Dmax and DC50), cells were seeded at 8000/well in 96-well black/clear-bottom plates in 180 μL DMEM growth media (containing 1% pen-strep, 1% HEPES and 10% FBS) per well. Plates were incubated overnight to allow adhesion. The next morning cells were treated by adding 20 μL of 10× compound (1% DMSO) to appropriate wells and returned to incubator for overnight (18-20 hours). The final DMSO concentration was 0.1%.
For processing, the plates were removed from incubator, the media was removed, and immediately 200 μL of cold (4° C.) DPBS was added to all wells. DPBS was then removed, and 50 μL of 4% paraformaldehyde (PFA) in DPBS (4° C.) was added to all wells, and the plates were incubated at room temperature for 20 minutes. PFA was then removed, and 200 μL of TBS-T containing 0.5% Triton X-100 was added to all wells, and the plates were incubated at room temperature for 30 minutes. […]
To read each plate TBS-T was removed, and each plate was inverted tapped on a paper towel. The plates were read on the LI-COR Odyssey with default intensity settings of 5.0 for both channels. LI-COR images were analyzed with the in-cell Western feature of Image Studio Lite.

A word on the Dmax: it is the greatest extent of degradation seen. As to `Cc1ncsc1-c1ccc([C@H](C)NC(=O)[C@@H]2C[C@@H](O)CN2C(=O)[C@@H](c2cc(N3CCC(CN4CCC(O[C@H]5C[C@H](Oc6cc(N7CCN(c8cc(-c9ccccc9O)nnc8N)CC7)ccn6)C5)CC4)CC3)no2)C(C)C)cc1` [compound 693, (2S,4R)-1-((R)-2-(3-(4-((4-((1r,3r)-3-((4-(4-(3-amino-6-(2-hydroxyphenyl)pyridazin-4-yl)piperazin-1-yl)pyridin-2-yl)oxy)cyclobutoxy)piperidin-1-yl)methyl)piperidin-1-yl)isoxazol-5-yl)-3-methylbutanoyl)-4-hydroxy-N-((S)-1-(4-(4-methylthiazol-5-yl)phenyl)ethyl)pyrrolidine-2-carboxamide], the Dmax (SW1573, read-out: Dmax (% degraded)) was greater than 75%.

Broadly, the DC50 is the concentration at which degradation of the target reaches its halfway point. Regarding “(2S,4R)-1-((2S)-2-(3-(2-(4-((1r,3S)-3-(3-(3-(3- amino-6-(2-hydroxyphenyl)pyridazin-4-yl)-3,8- diazabicyclo[3.2.1]octan-8- yl)phenoxy)cyclobutoxy)piperidin-1- yl)ethoxy)isoxazol-5-yl)-3-methylbutanoyl)-4- hydroxy-N-((S)-1-(4-(4-methylthiazol-5- yl)phenyl)ethyl)pyrrolidine-2-carboxamide [compound 461]”, the DC50 (target protein degradation) was greater than 0.03 µM.
